Assay results taken from patent publication US4162316A (priority 1975, dated 1979).

Test: Solubility remark in the D'Amour-Smith s.c. test
Details: Table 2; s.c. column

Compound	Insoluble (solubility for s.c. administration)
COc1ccccc1N1CCN(C(Cc2cccc(Cl)c2)c2ccccc2)CC1 (racemic)	Insoluble
Oc1cccc(CC(c2ccccc2)N2CCN(c3cccc(O)c3)CC2)c1 (racemic)	Insoluble
